This assay has as its target EXO70A1 (Arabidopsis thaliana, UniProt Q9LZD3). Nature of the assay: Microscale thermophoresis (MST) with NT-647 labeled EXO70A1. The assay is classed as binding. The note with it: read-out: Kd (mean ± SE). Background: MST reads how a fluorescent partner responds to local heating, with and without ligand.

By UniProt entry, the sequences of proteins in these tests, tags left out. Residues count along the entry.
UniProt Q9LZD3, 75-638 limits assumed: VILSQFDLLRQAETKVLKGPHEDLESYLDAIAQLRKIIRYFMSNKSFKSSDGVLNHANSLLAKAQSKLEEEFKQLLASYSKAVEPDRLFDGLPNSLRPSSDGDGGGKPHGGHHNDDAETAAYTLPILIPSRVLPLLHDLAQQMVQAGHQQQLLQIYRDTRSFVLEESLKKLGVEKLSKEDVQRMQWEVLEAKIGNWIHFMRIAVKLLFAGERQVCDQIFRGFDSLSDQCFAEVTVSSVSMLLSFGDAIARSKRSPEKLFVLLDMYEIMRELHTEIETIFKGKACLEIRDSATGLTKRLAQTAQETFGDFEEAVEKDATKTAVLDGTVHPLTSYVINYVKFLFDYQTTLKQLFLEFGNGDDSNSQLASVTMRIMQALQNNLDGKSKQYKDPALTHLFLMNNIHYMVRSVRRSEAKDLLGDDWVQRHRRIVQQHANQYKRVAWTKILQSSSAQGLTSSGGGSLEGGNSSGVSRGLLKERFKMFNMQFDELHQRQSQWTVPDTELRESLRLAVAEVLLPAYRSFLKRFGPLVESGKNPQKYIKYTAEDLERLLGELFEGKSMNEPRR

This note sets out measurements from patent US20180362449A1, “THE EXOCYST AS A NOVEL DRUG TARGET OF ENDOSIDIN2 AND APPLICATION AS A THERAPEUTIC” (The Regents of the University of California, priority 2015, published 2018).

On to `COc1cc(/C=N/NC(=O)c2cccc(F)c2)cc(I)c1O` [ES2], for which the Kd – broadly, the constant that tells how readily two partners part at equilibrium – turned out to be 253 µM.
